Assay: Determination of drug solubility

Question: With `CCN[C@H]1C[C@H](C)S(=O)(=O)c2sc(S(=O)(=O)NC(=O)[C@H](C)OC(=O)[C@H](C)OC(=O)[C@H](C)O)cc21` as the compound, how does the “Solubility DCM” value (DCM) read?
Answer: The value was less than 5000 µg/mL.

Question: And the “Solubility DMSO” value (DMSO)?
Answer: Its value is less than 2000 µg/mL.

Question: What about the “Solubility Water” value (water / aqueous solvent) of the same compound?
Answer: Its value is greater than 50000 µg/mL.
